According to US9714254B2, “Anilino podophyllin derivative having antitumor activity, method for preparation thereof, and use thereof” (HUBEI UNIVERSITY OF TECHNOLOGY, priority 2013, dated 2017):

Key:
A549 cell line = test: MTT test of inhibiting tumor cell activity, A549; conditions: read-out: Cytotoxic activity (IC50, μM) A549, A549 cells, 48 h cultivation
BGC823 cell line = test: MTT test of inhibiting tumor cell activity, BGC823; conditions: read-out: Cytotoxic activity (IC50, μM) BGC823, BGC823 cells, 48 h cultivation
Hela cell line = test: MTT test of inhibiting tumor cell activity, Hela; conditions: read-out: Cytotoxic activity (IC50, μM) Hela, Hela cells, 48 h cultivation

Substance	IC50 (A549 cell line)	IC50 (BGC823 cell line)	IC50 (Hela cell line)
4-N-(2-ethyl-5-nitroaniline)-4-deoxy-4′-demethylepipodophyllotoxin [Compound 18]	4.28 ± 0.48 µM	27.12 ± 0.24 µM	–
4-N-(4-chloro-3-methylaniline)-4-deoxy-4′-demethylepipodophyllotoxin [Compound 2]	–	1.77 ± 0.37 µM	2.01 ± 1.21 µM
